Values of other authors as cited in patent US5919797A, “Halogenated naphthyl methoxy piperidines for mapping serotonin transporter sites” (Emory University, priority 1997, dated 1999).

Key:
[1] = system: presynaptic reuptake of serotonin; settings: humans; depression, obsessive-compulsive and eating disorders, alcoholism, drug addiction; cited from earlier work
serotonin transporter = settings: radiolabeled with carbon-11 and fluorine-18; cited from earlier work

Structure (SMILES) | therapeutic value, in words [1] | image quality / in vivo affinity and selectivity, in words (serotonin transporter)
CN(C)CCCC1(c2ccc(F)cc2)OCc2cc(C#N)ccc21 (stereo not drawn) [citalopram] | considerable therapeutic value | poor quality images
CNCCC(Oc1ccc(C(F)(F)F)cc1)c1ccccc1 (stereo not drawn) [fluoxetine] | considerable therapeutic value | poor quality images
Fc1ccc([C@@H]2CCNC[C@H]2COc2ccc3c(c2)OCO3)cc1 [paroxetine] | considerable therapeutic value | poor quality images
